The source of these data is US20240246911A1, “NOVEL T[…] METHODS OF TREATING MOOD DISORDERS” (GILGAMESH PHARMACEUTICALS INC., priority 2021, published 2024).

SMILES strings stand for the structures.

One may read the EC50 as the concentration at which the effect is half-maximal. Lower therefore signals a more potent agent.

In this assay the target is 5-HT1A receptor (Homo sapiens (Human), UniProt P08908). Briefly: FLIPR Ca2+ flux functional assay, agonist activity at 5-HT1A. Type of assay: cell-based. The following applies: CHO stably transfected cells. The protocol: Functional Assays at 5-HT2A, 5-HT2B, and 5-HT1A Receptors. Agonist activity at 5-HT2A, 5-HT2B, and 5-HTIA receptors was determined using a FLIPR Ca^2− flux assay at WuXi AppTec (Hong Kong) Limited according to their standard protocols. Briefly, stably transfected cells expressing the receptor of interest (HEK293 for 5-HT2A and 5-HT2B; CHO cells for 5-HT1A) were grown and plated in a 384-well plate and incubated at 37° C. and 5% CO2 overnight. A solution of 250 mM probenecid in 1 mL FLIPR assay buffer was prepared fresh. This was combined with a fluorescent dye (Fluo-4 Direct™) to make a final assay concentration of 2.5 mM. Compounds were diluted 1:3.16 for 10 points and 750 nL was added to a 384-well compound plate using ECHO along with 30 μL of assay buffer. The fluorescent dye was then added to the assay plate along with assay buffer to a final volume of 40 μL. The cell plate was incubated for 50 min at 37° C.and 5% CO2 and placed into the FLIPR Tetra along with the compound plate. 10 μL of references and compounds were then transferred from the compound plate into the cell plate and the fluorescent signal was read.
(In general: Calcium flux is commonly read through the fluorescence of an indicator in the cells.)

Compound `COc1ccc2[nH]cc(CCN(C)C)c2c1` [Compound 5-MeO-DMT, 5-methoxy-N,N-dimethyltryptamine] displayed an EC50 of 279 nM.
